Literature values, collected in patent publication US7943806B2.

Substance: bromine
- water solubility: 3.5 grams/100 ml
